Data: ChEMBL document CHEMBL1158373, “GRIND-based 3D-QSAR and CoMFA to investigate topics dominated by hydrophobic interactions: the case of hERG K+ channel blockers” (Eur J Med Chem, 2009)

By UniProt entry, the sequences of proteins in these tests, tags left out. Where a name states a change or a piece, a line headed by the entry shows the natural chain unless it says otherwise.
UniProt Q12809: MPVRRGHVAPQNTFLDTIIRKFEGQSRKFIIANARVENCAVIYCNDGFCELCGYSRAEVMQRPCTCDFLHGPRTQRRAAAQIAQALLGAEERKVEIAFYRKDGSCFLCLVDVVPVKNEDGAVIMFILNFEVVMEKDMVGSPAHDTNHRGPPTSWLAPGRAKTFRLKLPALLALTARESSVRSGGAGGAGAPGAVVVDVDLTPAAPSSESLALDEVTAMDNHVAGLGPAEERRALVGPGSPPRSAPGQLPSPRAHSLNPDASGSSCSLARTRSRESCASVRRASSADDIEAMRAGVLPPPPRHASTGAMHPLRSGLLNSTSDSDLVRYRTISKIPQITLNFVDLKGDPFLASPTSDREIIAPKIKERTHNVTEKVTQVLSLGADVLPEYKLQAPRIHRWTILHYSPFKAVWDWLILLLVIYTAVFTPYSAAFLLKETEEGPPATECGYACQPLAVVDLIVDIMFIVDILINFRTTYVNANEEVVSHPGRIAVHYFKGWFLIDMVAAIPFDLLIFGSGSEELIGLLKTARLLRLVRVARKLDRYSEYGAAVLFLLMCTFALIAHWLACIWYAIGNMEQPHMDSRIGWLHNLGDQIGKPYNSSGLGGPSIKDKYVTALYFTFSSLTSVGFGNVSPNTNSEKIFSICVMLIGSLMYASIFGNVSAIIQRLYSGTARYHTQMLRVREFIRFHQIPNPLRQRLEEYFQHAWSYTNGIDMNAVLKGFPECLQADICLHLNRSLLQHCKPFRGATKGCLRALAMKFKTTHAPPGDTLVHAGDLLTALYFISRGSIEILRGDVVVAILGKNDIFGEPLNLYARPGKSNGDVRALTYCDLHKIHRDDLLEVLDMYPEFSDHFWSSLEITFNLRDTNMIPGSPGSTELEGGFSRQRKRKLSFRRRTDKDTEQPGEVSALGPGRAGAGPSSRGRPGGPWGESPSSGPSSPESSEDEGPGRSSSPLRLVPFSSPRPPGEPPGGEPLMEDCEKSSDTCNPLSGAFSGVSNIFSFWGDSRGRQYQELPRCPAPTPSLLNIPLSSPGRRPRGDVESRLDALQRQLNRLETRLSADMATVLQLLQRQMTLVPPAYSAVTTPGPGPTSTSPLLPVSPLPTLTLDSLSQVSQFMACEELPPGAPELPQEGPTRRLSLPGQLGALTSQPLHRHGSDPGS

Target: Voltage-gated inwardly rectifying potassium channel KCNH2 (Homo sapiens, UniProt Q12809)

SMILES	IC50 [µM]
C1CCC(C(CC2CCCCN2)C2CCCCC2)CC1 (configuration not stated) [PERHEXILINE]	7.76
CC(C)COCC(CN(Cc1ccccc1)c1ccccc1)N1CCCC1 (configuration not stated) [BEPRIDIL]	0.55
